{"sequences": {"note": "Sequences of proteins named here, by UniProt entry; tags and fusion partners are left off.", "UniProt P34949, whole entry": "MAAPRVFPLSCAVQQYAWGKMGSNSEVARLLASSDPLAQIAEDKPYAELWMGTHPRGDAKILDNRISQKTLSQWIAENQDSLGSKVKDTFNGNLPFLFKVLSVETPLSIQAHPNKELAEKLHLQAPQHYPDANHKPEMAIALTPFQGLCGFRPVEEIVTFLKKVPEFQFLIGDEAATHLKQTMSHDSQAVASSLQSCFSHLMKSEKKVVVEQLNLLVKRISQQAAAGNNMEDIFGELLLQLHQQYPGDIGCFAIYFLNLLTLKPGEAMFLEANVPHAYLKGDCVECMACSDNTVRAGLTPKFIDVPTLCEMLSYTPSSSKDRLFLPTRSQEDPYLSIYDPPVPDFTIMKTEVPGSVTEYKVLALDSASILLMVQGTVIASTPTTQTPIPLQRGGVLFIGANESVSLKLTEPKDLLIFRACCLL"}, "source": "PubChem BioAssay AID1209", "about": "(Sanford-Burnham Center for Chemical Genomics, 2008)", "note": "The list shows a part of the results, in another mix than the full data. Calls of active or inactive are those of the source. Cut-off read from the data, not from the text of the source: active = inhibition above about 50%; inactive = the rest.", "data": [{"target": "Mannose-6-phosphate isomerase (Homo sapiens) (UniProt P34949)", "test": "inhibitors of human PMI, primary screen, biochemical, fluorescence intensity, coupled assay (AID 1209);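 note: plate controls were DMSO vehicle for no effect and wells lacking substrate for full effect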", "conditions": "purified PMI enzyme, at 20 µM, active compounds read high", "values": [{"smiles": "CC(C)c1ccc(OP(C)(=O)Nc2ccc(SC(F)(F)F)cc2)cc1", "note": "(centres undefined)", "inhibition": "inactive: 35%"}, {"smiles": "CP(=O)(Nc1ccccc1F)Oc1ccccc1", "note": "(centres undefined)", "inhibition": "inactive: 1%"}, {"smiles": "O=C(OCCN1CCN(CCOCc2ccccc2)CC1)C(O)(c1ccccc1)c1ccccc1", "inhibition": "inactive: -31.4%"}, {"smiles": "COc1ccc(OP(C)(=O)Nc2ccc(SC(F)(F)F)cc2)cc1", "note": "(centres undefined)", "inhibition": "inactive: -8.4%"}, {"smiles": "CCOC(=O)c1ccc(NP(C)(=O)Oc2ccc(F)cc2)cc1", "note": "(centres undefined)", "inhibition": "inactive: 3%"}, {"smiles": "CCN(CC)CCCOC(=O)C(O)(c1ccccc1)C1CCCCC1", "note": "(centres undefined)", "inhibition": "inactive: -16.5%"}, {"smiles": "CP(=O)(Nc1ccccc1)Oc1ccc(F)cc1", "note": "(centres undefined)", "inhibition": "inactive: 1.3%"}, {"smiles": "COc1ccc(OP(C)(=O)Nc2cccc(Br)c2)cc1", "note": "(centres undefined)", "inhibition": "inactive: -2.7%"}, {"smiles": "COc1ccc(NP(C)(=O)Oc2ccccc2OC)cc1", "note": "(centres undefined)", "inhibition": "inactive: -1.3%"}, {"smiles": "CN(C)CCOC(=O)C(O)(c1ccccc1)C1CCCCC1", "note": "(centres undefined)", "inhibition": "inactive: -0.6%"}, {"smiles": "O=[N+]([O-])c1cc([N+](=O)[O-])c(NCC2CCS(=O)(=O)C2)c([N+](=O)[O-])c1", "note": "(centres undefined)", "inhibition": "inactive: 5.5%"}, {"smiles": "CCOP(C)(=S)SCC(=O)NC(C)(CC)C(=O)O", "note": "(centres undefined)", "inhibition": "inactive: 13.1%"}, {"smiles": "CP(=O)(Nc1ccc2c(c1)OCCO2)Oc1ccccc1", "note": "(centres undefined)", "inhibition": "inactive: -3.6%"}, {"smiles": "Cc1ccccc1NP(C)(=O)Nc1ccccc1C", "inhibition": "inactive: 8.4%"}, {"smiles": "COc1ccc(OP(C)(=O)Nc2ccc(Br)cc2)cc1", "note": "(centres undefined)", "inhibition": "inactive: 2.1%"}, {"smiles": "CCN(CC)CC(O)COC(=O)C(O)(c1ccccc1)C1CCCCC1", "note": "(centres undefined)", "inhibition": "inactive: -1.3%"}, {"smiles": "CCc1ccc(OP(C)(=O)Nc2cccnc2)cc1", "note": "(centres undefined)", "inhibition": "inactive: -5.7%"}, {"smiles": "CP(=O)(Oc1ccccc1)N1CCOC1=O", "note": "(centres undefined)", "inhibition": "inactive: -3.3%"}, {"smiles": "COc1ccccc1OP(C)(=O)Nc1c(C)n(C)n(-c2ccccc2)c1=O", "note": "(centres undefined)", "inhibition": "inactive: 1.8%"}, {"smiles": "CP(=O)(Nc1ccc(Cl)cc1)Oc1ccc(F)cc1", "note": "(centres undefined)", "inhibition": "inactive: 7.1%"}, {"smiles": "COc1ccccc1OP(C)(=O)Nc1ccccc1Br", "note": "(centres undefined)", "inhibition": "inactive: -5.5%"}, {"smiles": "CC(C)(C)c1ccc(OP(C)(=O)O)cc1", "inhibition": "inactive: 1.7%"}, {"smiles": "CN(C)C(=O)c1c([N+](=O)[O-])cc([N+](=O)[O-])cc1[N+](=O)[O-]", "inhibition": "inactive: 6.6%"}, {"smiles": "CP(=O)(OC12CC3CC(CC(C3)C1)C2)OC12CC3CC(CC(C3)C1)C2", "inhibition": "inactive: 4.5%"}, {"smiles": "CCOC(=O)c1ccc(NP(C)(=O)Oc2ccc(Cl)cc2)cc1", "note": "(centres undefined)", "inhibition": "inactive: 6%"}, {"smiles": "Cc1cc(C)cc(OP(C)(=O)Nc2cccc(C(F)(F)F)c2)c1", "note": "(centres undefined)", "inhibition": "inactive: 14.4%"}, {"smiles": "COc1ccc(OP(C)(=O)Nc2ccccc2Br)cc1", "note": "(centres undefined)", "inhibition": "inactive: -4%"}, {"smiles": "COc1ccccc1OP(C)(=O)Nc1ccc(C)c(C)c1", "note": "(centres undefined)", "inhibition": "inactive: -8.5%"}, {"smiles": "CP(=O)(Nc1ccc(Cl)cc1Cl)Oc1ccccc1", "note": "(centres undefined)", "inhibition": "inactive: 1.7%"}, {"smiles": "CP(=O)(OCCOc1ccccc1)OCCOc1ccccc1", "inhibition": "inactive: -0.3%"}, {"smiles": "CN(C)CCOC(=O)C(O)(c1ccccc1)C1CCCC1", "note": "(centres undefined)", "inhibition": "inactive: -9%"}, {"smiles": "COc1ccc(OP(C)(=O)Nc2ccccn2)cc1", "note": "(centres undefined)", "inhibition": "inactive: 0.9%"}, {"smiles": "Cc1c(NP(C)(=O)Oc2ccc(C(C)C)cc2)c(=O)n(-c2ccccc2)n1C", "note": "(centres undefined)", "inhibition": "inactive: -19.9%"}, {"smiles": "O=[N+]([O-])c1cc([N+](=O)[O-])c(Nc2ccccn2)c([N+](=O)[O-])c1", "inhibition": "inactive: 47%"}, {"smiles": "CCc1ccc(OP(C)(=O)O)cc1", "inhibition": "inactive: 3.7%"}, {"smiles": "COc1ccccc1OP(C)(=O)Nc1ccc(C)cc1C", "note": "(centres undefined)", "inhibition": "inactive: 5.2%"}, {"smiles": "CP(=O)(Nc1ccccn1)Oc1ccccc1", "note": "(centres undefined)", "inhibition": "inactive: 9.2%"}, {"smiles": "CCN(CC)CCCOC(=O)C(O)(c1ccccc1)c1ccccc1", "inhibition": "inactive: -9%"}, {"smiles": "Cc1cccc(C)c1OP(C)(N)=O", "note": "(centres undefined)", "inhibition": "inactive: -51.3%"}, {"smiles": "CC(C)(C)c1ccc(OP(C)(=O)Nc2ccc(SC(F)(F)F)cc2)cc1", "note": "(centres undefined)", "inhibition": "inactive: 22%"}, {"smiles": "O=[N+]([O-])c1ccc2c(c1)C=Nc1ccccc1O2", "inhibition": "active: 71%"}, {"smiles": "CCOC(=O)c1ccc(NP(C)(=O)Oc2ccccc2)cc1", "note": "(centres undefined)", "inhibition": "inactive: 3.4%"}, {"smiles": "Cc1ccc(NP(C)(=O)Oc2ccccc2)c(C)c1", "note": "(centres undefined)", "inhibition": "inactive: 1.1%"}, {"smiles": "COc1ccccc1OP(C)(=O)Nc1ccc(C)cc1", "note": "(centres undefined)", "inhibition": "inactive: 7.3%"}, {"smiles": "COc1ccc(OP(C)(=O)Nc2cccc(F)c2)cc1", "note": "(centres undefined)", "inhibition": "inactive: 4.8%"}, {"smiles": "COc1ccccc1OP(C)(=O)Nc1cc(Cl)ccc1C", "note": "(centres undefined)", "inhibition": "inactive: 4.3%"}, {"smiles": "Cc1cc(C)cc(OP(C)(N)=O)c1", "note": "(centres undefined)", "inhibition": "inactive: 1.1%"}, {"smiles": "CP(=S)(Nn1cnnc1)Oc1ccccc1", "note": "(centres undefined)", "inhibition": "inactive: 10.4%"}, {"smiles": "COc1ccccc1OP(C)(=O)Nc1ccccc1", "note": "(centres undefined)", "inhibition": "inactive: -3.4%"}, {"smiles": "CP(=O)(Nc1ccccc1Br)Oc1ccccc1", "note": "(centres undefined)", "inhibition": "inactive: -7.5%"}, {"smiles": "CP(=O)(Oc1ccccc1)OC(c1ccccc1)C(F)(F)F", "note": "(centres undefined)", "inhibition": "inactive: -2.2%"}, {"smiles": "Cc1cccc(C)c1OP(C)(=O)Nc1ccc(SC(F)(F)F)cc1", "note": "(centres undefined)", "inhibition": "inactive: 28.5%"}, {"smiles": "Cc1cc(C)cc(OP(C)(=O)Nc2ccc(SC(F)(F)F)cc2)c1", "note": "(centres undefined)", "inhibition": "inactive: 17.3%"}, {"smiles": "CP(=O)(NC(=O)Nc1ccccc1)Oc1ccccc1", "note": "(centres undefined)", "inhibition": "inactive: -2.2%"}, {"smiles": "CCOP(C)(=S)SCC(=O)NC(C)C(=O)O", "note": "(centres undefined)", "inhibition": "inactive: 11.2%"}, {"smiles": "CCOC(=O)c1ccc(NP(C)(=O)Oc2ccc(OC)cc2)cc1", "note": "(centres undefined)", "inhibition": "inactive: -2.6%"}, {"smiles": "CP(=O)(Nc1ccccn1)Oc1ccc(Cl)cc1", "note": "(centres undefined)", "inhibition": "inactive: 2.7%"}, {"smiles": "O=[N+]([O-])c1cc([N+](=O)[O-])c(-n2nnc3ccccc32)c([N+](=O)[O-])c1", "inhibition": "inactive: -4%"}, {"smiles": "Cc1nc2ccc3ccccc3c2s1.O=[N+]([O-])c1cc([N+](=O)[O-])c(O)c([N+](=O)[O-])c1", "inhibition": "inactive: -3.5%"}, {"smiles": "CN1CCCCC1COC(=O)C1(O)c2ccccc2CCc2ccccc21", "note": "(centres undefined)", "inhibition": "inactive: 9.9%"}, {"smiles": "COc1ccccc1OP(C)(=O)Nc1c(C)cccc1C", "note": "(centres undefined)", "inhibition": "inactive: -10.1%"}, {"smiles": "CCCOc1ccc(NP(C)(=O)Oc2ccc(Cl)cc2)cc1", "note": "(centres undefined)", "inhibition": "inactive: 7.1%"}, {"smiles": "CP(=O)(Nc1ccc(SC(F)(F)F)cc1)Oc1ccccc1", "note": "(centres undefined)", "inhibition": "inactive: 6%"}, {"smiles": "CC1=NCCc2c1[nH]c1ccccc21.O=[N+]([O-])c1cc([N+](=O)[O-])c(O)c([N+](=O)[O-])c1", "inhibition": "inactive: 4.8%"}, {"smiles": "Cc1cc(C)cc(OP(C)(=O)Nc2ccc(C)cc2C)c1", "note": "(centres undefined)", "inhibition": "inactive: 9%"}, {"smiles": "CCOC(=O)c1ccc(NP(C)(=O)Oc2cc(C)cc(C)c2)cc1", "note": "(centres undefined)", "inhibition": "inactive: 4%"}, {"smiles": "Cc1cc(C)cc(OP(C)(=O)Nc2ccccn2)c1", "note": "(centres undefined)", "inhibition": "inactive: 0.8%"}, {"smiles": "CP(=O)(Nc1cccc(Br)c1)Oc1ccccc1", "note": "(centres undefined)", "inhibition": "inactive: 8.2%"}, {"smiles": "Cc1ccc(C)c(NP(C)(=O)Oc2ccccc2)c1", "note": "(centres undefined)", "inhibition": "inactive: 1.7%"}]}]}
